Tests used:
[1] = tested on: MTX-resistant tumor (P1798 S/B lymphosarcoma) cells; experiment: Uptake by tumor cell suspensions in vitro, MTX-resistant; type: cell-based, mouse; conditions: for CPM per 1 × 10^5 Cells: 60 minutes 37° C.
[2] = tested on: MTX-resistant, steroid-sensitive tumor (P1798 S/B); experiment: Uptake by tumor in vivo, MTX-resistant; conditions: for CPM Per 5 × 10^6 Cells: 24 hours after one tail vein injection
[3] = tested on: P 1798 S/B tumor, methotrexate-resistant lymphosarcoma; experiment: Antitumor effect (tumor weight), MTX-resistant lymphosarcoma, intravenous; type: in vivo, BALB/c male mice; conditions: for Mean Tumor Weight: Mean ± SEM
[4] = tested on: steroid-resistant, presumably MTX-sensitive variant of P1798 S/B; experiment: Uptake by tumor in vivo, MTX-sensitive; design: species or system BALB/c mice; conditions: 24 hours after one tail vein injection
Source text: The results of two typical experiments were:

[5] = tested on: P 1798 S/B lymphosarcoma, MTX-resistant; experiment: Survival of mice bearing MTX-resistant lymphosarcoma; type: in vivo, BALB/c mice
Description: Treatment consisted of one daily 0.2 ml injection in the tail vein beginning on the sixth day after inoculation, and was continued until the death of the animal. […] In all three groups, the first death occurred on day 10 or 11 and the last survivor died on day 14. By contrasts, in the group receiving MTX-PLL, the first death occurred on day 15 and the last survivor died on day 21. Thus, the use of MTX-PLL conjugate prolonged survival by an average of 6 days.

[6] = tested on: MTX-sensitive variant of P1798 S/B lymphosarcoma cells; experiment: Uptake by tumor cell suspensions in vitro, MTX-sensitive; type: cell-based, mouse; conditions: 60 minutes 37° C.

CN(Cc1cnc2nc(N)nc(N)c2n1)c1ccc(C(=O)N[C@@H](CCC(=O)O)C(=O)O)cc1 [MTX, Methotrexate]
CPM per 1 × 10^5 Cells ([1]; Exp. I, MTX 8.8×10^-6 M, MTX-PLL 7.3×10^-6 M, PLL MW 3,100): 277 CPM
CPM per 1 × 10^5 Cells ([1]; Exp. II): 178 CPM
less free drug taken up than by drug sensitive tumor cells ([1]; approximately 8×10^-6 M): about 10 times
CPM Per 5 × 10^6 Cells ([2]; Exp. I, MTX 3.6 mg/kg, MTX-PLL 3.2 mg/kg, PLL MW 3,100): 63 CPM
CPM Per 5 × 10^6 Cells ([2]; Exp. II): 94 CPM
lesser uptake of free drug by resistant vs sensitive tumor ([2]; mouse, in vivo): ~30 fold
% of Controls (tumor weight) ([3]; Experiment No. 1): 102%
Mean Tumor Weight ([3]; Experiment No. 1, daily tail vein injection from Day 12, 3 days, PLL MW 2,700): 4.53 ± 0.28 g
% of Controls (tumor weight) ([3]; Experiment No. 2): 97%
Mean Tumor Weight ([3]; Experiment No. 2, daily tail vein injection from 8th day, 4 days): 4.80 ± 0.50 g
CPM Per 5 × 10^6 Cells ([4]; Exp. I): 2099 CPM
CPM Per 5 × 10^6 Cells ([4]; Exp. II): 2240 CPM
last survivor died ([5]; daily i.v. from sixth day after inoculation): 14 days
longest survival measured from the initial treatment ([5]; mouse, in vivo): 8 days
CPM per 1 × 10^5 Cells ([6]; Exp. I): 2,094 CPM
CPM per 1 × 10^5 Cells ([6]; Exp. II): 3,154 CPM

From patent publication US4701521A, “Method of effecting cellular uptake of molecules” (The Trustees of Boston University, priority 1979, dated 1987)
